What is called IC50 is the concentration at which inhibition is half-maximal.

The test system of data set [1] is RAW 264.7 cells. The note with it: mouse.
Data set [2] concerns RAW 264.7 cells. The data set is described as follows: cells. The conditions noted are these: Mus musculus, RAW264.7, 12 h, read-out: IC50 for viability.
Another data set relates to HG23 cells. The experiment in a line: Cell cytotoxicity assay kit.
In a further data set the test system is Z138. The data set is described as follows: MTT cell growth, survival and apoptosis. The note with it: Z138 cells, 0.3-5 μM, 1 mM DTT.
The subject of data set [3] is BaF3 cell lines expressing WT and T315I variants of Bcr-Abl. The data set is described as follows: Apoptosis / MTT in Bcr-Abl transformed BaF3 cells.
For another data set, the system named is Listeria monocytogenes. The experiment in a line: Listeria monocytogenes infection of macrophages, CFU.

For the molecule `CCC[C@H](NC(=O)/C(C#N)=C/c1cccc(Br)n1)c1ccccc1` [WP1130], the “Cell viability (WST-1)” value with RAW 264.7 cells [1] is listed as “above 80%”. In addition, in the data set on RAW 264.7 cells [2], the 50% inhibitory concentration (IC50) turned out to be 7.6 µM. Further, the “concentrations with compound associated cytotoxicity” value in the data set with HG23 cells is “higher than 10 μM”. Further, the “compound-induced apoptosis and anti-proliferative effects in the presence of DTT” value in the data set on Z138 is “complete loss”. Also, the “sensitivity to compound-mediated apoptosis” value in data set [3] is “high sensitivity”. The “Colony forming units (CFUs) normalized to vehicle control” value in the data set with Listeria monocytogenes (RAW 264.7, pre-treatment with 5 μM, eight hours post-infection) is reported as “Significantly fewer bacteria”; with Listeria monocytogenes (RAW 264.7, treatment 1 hour postinfection) it was “did not lead to a decrease”.

In the case of `C[C@H](NC(=O)/C(C#N)=C/c1ccc([N+](=O)[O-])c(O)c1)c1ccccc1` [WP1051], in the data set with RAW 264.7 cells [1], the “Cell viability (WST-1)” value is “above 80%”.

As for `C[C@H](NC(=O)/C(C#N)=C/c1ccc(O)c([N+](=O)[O-])c1)c1ccccc1` [WP1052], in the data set on RAW 264.7 cells [1], the “Cell viability (WST-1)” value was “above 80%”.

Values taken from patent US8809377B2, “Deubiquitinase inhibitors and methods for use of the same” (The Regents of the University of Michigan, priority 2010, dated 2014).
